Test results: patent US11168364B2, “Method and system for sequencing nucleic acids” (priority 2016, dated 2021)

Biological target: T1, Bsu DNA polymerase large fragment / primed template nucleic acid (Bacillus subtilis, UniProt O34996)
T1 construct: 350 U/ml Bsu DNA polymerase large fragment
T1 sequence (O34996 297-880 limits assumed): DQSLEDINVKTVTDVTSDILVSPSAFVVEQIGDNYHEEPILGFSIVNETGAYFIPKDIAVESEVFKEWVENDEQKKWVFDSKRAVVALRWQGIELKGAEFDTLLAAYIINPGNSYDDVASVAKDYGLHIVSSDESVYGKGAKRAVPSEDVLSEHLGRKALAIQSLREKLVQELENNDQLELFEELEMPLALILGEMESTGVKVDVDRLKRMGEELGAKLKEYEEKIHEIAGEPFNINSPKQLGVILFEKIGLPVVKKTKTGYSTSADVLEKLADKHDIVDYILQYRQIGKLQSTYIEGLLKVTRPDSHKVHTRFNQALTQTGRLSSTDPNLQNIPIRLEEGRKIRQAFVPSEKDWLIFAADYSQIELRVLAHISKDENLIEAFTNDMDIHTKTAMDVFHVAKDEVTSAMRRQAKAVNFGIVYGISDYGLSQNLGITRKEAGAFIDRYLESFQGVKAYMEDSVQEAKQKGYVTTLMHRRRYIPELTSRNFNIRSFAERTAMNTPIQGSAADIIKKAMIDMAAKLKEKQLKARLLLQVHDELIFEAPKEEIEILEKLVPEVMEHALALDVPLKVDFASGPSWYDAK
Test: Biolayer interferometry of polymerase binding to immobilized primed template with cognate or non-cognate nucleotide, salt titration (Example 19)
Details: NaCl 400 mM
Description: A FORTEBIO® (Menlo Park, Calif.) OCTET® instrument employing biolayer interferometry to measure binding reactions at the surface of a fiber optic tip was used in a multiwell plate format to investigate differential stability of binary and ternary complexes. Template strands biotinylated at their 5′-ends were used to immobilize the primed template nucleic acid onto fiber optic tips functionalized with streptavidin (SA) according to standard procedures. […] Tips were first equilibrated in a Tris-buffered solution containing 30 mM Tris-HCl (pH 8.0), and 0.1 mM EDTA before commencing the cycling protocol. Independent binding reactions for the two test nucleotides (i.e., cognate and non-cognate nucleotides) were carried out in the presence of concentrations of NaCl, KCl, or potassium glutamate that varied from 50 mM to 500 mM. […] When using a single contacting step to effect binding of polymerase and nucleotide to the primed template nucleic acid, the binding step was 45 seconds long, with binding interactions being monitored continuously. […] Results from interferometry monitoring were analyzed to identify formation of ternary complexes (i.e., identifying cognate nucleotide) or binary complexes (i.e., identifying non-cognate nucleotide).

## [Cl-].[Na+] [NaCl]
  Fold Enhancement (Ternary/Binary): 5.93
